In PMC8284473, “Preliminary Characterization of NP339, a Novel Polyarginine Peptide with Broad Antifungal Activity” (Antimicrobial Agents and Chemotherapy, 2021):
Converted amounts (≈) assume the structure as drawn.

Test system: C. albicans NCTC 3179
Format: cell-based, Candida albicans
Details: NCTC 3179, 24 h

MIC: 2 µM (≈ 4.72 µg/mL)
SMILES: N=C(N)NCCC[C@H](NC(=O)[C@H](CCCNC(=N)N)NC(=O)[C@H](CCCNC(=N)N)NC(=O)[C@H](CCCNC(=N)N)NC(=O)[C@H](CCCNC(=N)N)NC(=O)[C@H](CCCNC(=N)N)NC(=O)[C@H](CCCNC(=N)N)NC(=O)[C@H](CCCNC(=N)N)NC(=O)[C@H](CCCNC(=N)N)NC(=O)[C@H](CCCNC(=N)N)NC(=O)[C@H](CCCNC(=N)N)NC(=O)[C@H](CCCNC(=N)N)NC(=O)[C@H](CCCNC(=N)N)NC(=O)[C@H](CCCNC(=N)N)NC(=O)[C@@H](N)CCCNC(=N)N)C(=O)O
